Earlier results in patent US20130005759A1, “SMALL MOLECULE MODIFIERS OF MICRORNA MIR-122” (North Carolina State University, priority 2010, published 2013).

System: miR-122
Conditions: literature reference 15; cited from earlier work

B1: interferon β: currently the most common HCV therapeutic (together with interferon α) (protein, UniProt P01574 22-187, looked up)
Interferon beta: MSYNLLGFLQRSSNFQCQKLLWQLNGRLEYCLKDRMNFDIPEEIKQLQQFQKEDAALTIYEMLQNIFAIFRQDSSSTGWNETIVENLLANVYHQINHLKTVLEEKLEKEDFTRGKLMSSLHLKRYYGRILHYLKAKEYSHCAWTIVRVEILRNFYFINRLTGYLRN
down-regulation of miR-122: ~80%
